This is an account of results in PubChem BioAssay AID602247 (The Scripps Research Institute Molecular Screening Center, 2012).

The list shows a part of the results, in another mix than the full data. Activity calls are given as the source filed them.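 The calls were made as follows: active = activation above the run cutoff, the mean activation of all test compounds plus 3 SD (cut at about 40% in these data); inactive = the rest.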

This assay is described as follows: ATP EC20 calcium response enhancers, parental CHO-K1 – cell-based, Fluo-8 calcium fluorescence, full deck, 1536-well, counter-screen for M1 PAM project, primary screen (AID 602247).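 Also: peak over basal fluorescence ratio in a 140 s read after ATP addition.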 As to conditions: parental CHO-K1, ATP EC20, Fluo-8 calcium fluorescence; at 3 µM; active compounds read high; 0% at ATP EC20, 100% at ATP max.
Regarding `Cc1cc(C)cc(OP(C)(=O)Nc2ccc(C)cc2C)c1` (centres undefined), the activation was inactive: 6.76%.

As for `CCOC(=O)c1ccc(NP(C)(=O)Oc2cc(C)cc(C)c2)cc1` (centres undefined), the activation was inactive: -9.62%.

On to `COc1cc(C(=O)NCC2(N3CCOCC3)CCCCC2)cc(Cl)c1OC(C)C`, for which the activation is inactive: -5.97%.

On to `COc1ccccc1OP(C)(=O)Nc1cccc(Br)c1` (centres undefined), for which the activation is inactive: 14.3%.

Regarding `CP(=O)(Nc1cccc(Br)c1)Oc1ccccc1` (centres undefined), the activation was inactive: 19.1%.

`Cc1cc(C)cc(OP(C)(=O)Nc2ccccn2)c1` (centres undefined): the activation is inactive: 4.48%.

For the compound `Cc1ccc(C)c(NP(C)(=O)Oc2ccccc2)c1` (centres undefined), the activation is inactive: 5.15%.

Take `O=C(O)c1cccc(Nc2c([N+](=O)[O-])cc([N+](=O)[O-])cc2[N+](=O)[O-])c1`: the activation was inactive: 18.5%.

With `CC1=NCCc2c1[nH]c1ccccc21.O=[N+]([O-])c1cc([N+](=O)[O-])c(O)c([N+](=O)[O-])c1`, the activation was inactive: 18.4%.

On to `O=[N+]([O-])c1cc([N+](=O)[O-])c(Nc2nnnn2CCO)c([N+](=O)[O-])c1`, for which the activation is inactive: -2.18%.

Take `CC1=C2N=C(C=C3N=C(C(C)=C4[N-][C@@](C)([C@@H]5N=C1[C@](C)(CCC(=O)NC[C@@H](C)OP(=O)([O-])O[C@H]1[C@@H](O)[C@@H](n6cnc7cc(C)c(C)cc76)O[C@@H]1CO)[C@H]5CC(N)=O)[C@@](C)(CC(N)=O)[C@@H]4CCC(N)=O)[C@@](C)(CC(N)=O)[C@@H]3CCC(N)=O)C(C)(C)[C@@H]2CCC(N)=O.[C-]#N.[Co+3]`: the activation is inactive: 25.3%.

For `CN(C)C1(CNC(=O)c2ccc(S(C)(=O)=O)cc2)CCCCC1`, the activation is inactive: 10.2%.

As for `CCOC(=O)C(CC)C1=NC(C)(C)Cc2ccccc21.O=[N+]([O-])c1cc([N+](=O)[O-])c(O)c([N+](=O)[O-])c1` (centres undefined), the activation is inactive: 1.84%.

`CP(=O)(Nc1ccc(SC(F)(F)F)cc1)Oc1ccccc1` (centres undefined): the activation is inactive: -2.83%.

Regarding `CCCOc1ccc(NP(C)(=O)Oc2ccc(Cl)cc2)cc1` (centres undefined), the activation was inactive: 14.6%.

Regarding `COc1ccc(-c2ccccn2)cc1.O=[N+]([O-])c1cc([N+](=O)[O-])c(O)c([N+](=O)[O-])c1`, the activation was inactive: 14.4%.

`CN1CCCCC1COC(=O)C1(O)c2ccccc2CCc2ccccc21` (centres undefined): the activation is inactive: 16.4%.

For the compound `COc1ccccc1OP(C)(=O)Nc1c(C)cccc1C` (centres undefined), the activation is inactive: 30.9%.

Consider `CN(Cc1cccnc1)C(=O)COc1ccc(Cl)c(Cl)c1.O=[N+]([O-])c1cc([N+](=O)[O-])c(O)c([N+](=O)[O-])c1`, for which the activation is inactive: 8.92%.

Take `O=[N+]([O-])c1cc([N+](=O)[O-])c(-n2nnc3ccccc32)c([N+](=O)[O-])c1`: the activation was inactive: -8.67%.

As for `Cc1nc2ccc3ccccc3c2s1.O=[N+]([O-])c1cc([N+](=O)[O-])c(O)c([N+](=O)[O-])c1`, the activation was inactive: 23.2%.

Regarding `O=[N+]([O-])c1cc([N+](=O)[O-])c(-c2cnn(-c3ccccc3)c2)c([N+](=O)[O-])c1`, the activation is inactive: -6.74%.

Take `CCc1ccc(OP(C)(=O)N2CCN(c3ccc([N+](=O)[O-])cc3)CC2)cc1` (centres undefined): the activation was inactive: -1.77%.

Regarding `CP(=O)(NC(=O)Nc1ccccc1)Oc1ccccc1` (centres undefined), the activation is inactive: -11.7%.

As to `Cc1cc(C)cc(OP(C)(=O)Nc2ccc(SC(F)(F)F)cc2)c1` (centres undefined), the activation is inactive: -7.78%.

Turning to `CP(=O)(Nc1ccc(SC(F)(F)F)cc1)Oc1ccc(Cl)cc1` (centres undefined), the activation is inactive: 6.36%.

As for `Cc1cccc(C)c1OP(C)(=O)Nc1ccc(SC(F)(F)F)cc1` (centres undefined), the activation was inactive: 15%.

With `Cc1ccc(Nc2c([N+](=O)[O-])cc([N+](=O)[O-])cc2[N+](=O)[O-])cc1`, the activation is inactive: 4.33%.

For the compound `CP(=O)(Oc1ccccc1)OC(c1ccccc1)C(F)(F)F` (centres undefined), the activation was inactive: -2.56%.

In the case of `CP(=O)(Nc1ccccn1)Oc1ccc(Cl)cc1` (centres undefined), the activation is inactive: 20.5%.

In the case of `CCOP(C)(=S)SCC(=O)NC(C)C(=O)O` (centres undefined), the activation is inactive: 10.4%.

Consider `O=[N+]([O-])c1cc([N+](=O)[O-])c(O)c([N+](=O)[O-])c1.c1ccc(Oc2ccncc2)cc1`, for which the activation is inactive: -1.02%.

In the case of `CCOC(=O)c1ccc(NP(C)(=O)Oc2ccc(OC)cc2)cc1` (centres undefined), the activation is inactive: 8.58%.

As to `CCCCOc1ccc(C(=O)NCC2(N3CCCCC3)CCCCC2)cc1OC`, the activation was inactive: 19.4%.

As for `COc1ccccc1OP(C)(=O)Nc1ccccc1` (centres undefined), the activation is inactive: -13%.

With `CP(=O)(Nc1ccccc1Br)Oc1ccccc1` (centres undefined), the activation was inactive: 20.9%.

In the case of `CP(=S)(Nn1cnnc1)Oc1ccccc1` (centres undefined), the activation was inactive: 3.95%.

`CC(C)(C)c1ccc(OP(C)(=O)Nc2ccc(SC(F)(F)F)cc2)cc1` (centres undefined): the activation is inactive: 11.3%.

Take `Cc1cccc(C)c1OP(C)(N)=O` (centres undefined): the activation was inactive: -7.54%.

For `O=[N+]([O-])c1ccc2c(c1)C=Nc1ccccc1O2`, the activation is inactive: -13.3%.

Take `O=[N+]([O-])c1cc([N+](=O)[O-])c(Nc2cccnc2)c([N+](=O)[O-])c1`: the activation is inactive: -9.25%.

On to `COc1cc(C(=O)NCC2(N3CCOCC3)CCCCC2)ccc1OCC(C)C`, for which the activation is inactive: 16.5%.

For `COc1ccccc1OP(C)(=O)Nc1cc(Cl)ccc1C` (centres undefined), the activation is inactive: 14.3%.

`COc1ccc(OP(C)(=O)Nc2cccc(F)c2)cc1` (centres undefined): the activation was inactive: -1.1%.

For the compound `Cc1cc(C)cc(OP(C)(N)=O)c1` (centres undefined), the activation was inactive: -4.31%.

Turning to `CCOC(=O)c1ccc(NP(C)(=O)Oc2ccccc2)cc1` (centres undefined), the activation is inactive: 25.1%.

On to `COc1ccccc1OP(C)(=O)Nc1ccc(C)cc1` (centres undefined), for which the activation is inactive: 20.4%.

For the compound `Cc1ccc(NP(C)(=O)Oc2ccccc2)c(C)c1` (centres undefined), the activation was inactive: 30.2%.

Turning to `CCN(CC)CCCOC(=O)C(O)(c1ccccc1)c1ccccc1`, the activation was inactive: -5.84%.

For `COc1ccccc1-c1ccccn1.O=[N+]([O-])c1cc([N+](=O)[O-])c(O)c([N+](=O)[O-])c1`, the activation was inactive: -1.74%.

Consider `CN(C)CCOC(=O)C(O)(c1ccccc1)C1CCCC1` (centres undefined), for which the activation was inactive: 10.9%.

Turning to `COc1ccc(OP(C)(=O)Nc2ccccn2)cc1` (centres undefined), the activation was inactive: 18.2%.

As for `COc1ccccc1OP(C)(=O)Nc1ccc(Br)cc1` (centres undefined), the activation is inactive: 1.53%.

`CCc1ccc(OP(C)(=O)O)cc1`: the activation was inactive: -10.4%.
